This is an account of results in PMC12399007.

The target in experiment [1] is fascin-bundled F-actin (3.0 µM F-actin pre-incubated with 0.3 µM fascin) (rabbit | mouse) (UniProt P68135). The experiment can be described thus: co-sedimentation; high-speed centrifugation (HSC, 1 h, 40,000 rpm, 20 °C); 3.0 µM F-actin pre-incubated with 0.3 µM fascin for 20 min, titrated with Tpm2 isoforms 0-3.0 µM; 5 mM Tris, 100 mM NaCl, 2 mM MgCl2, 1 mM DTT, pH 7.5; Hill fit, apparent Kapp; fascin band in the pellets also quantified.

The target is the same in experiment [2]. The experiment can be described thus: co-sedimentation; low-speed centrifugation (LSC, 30 min, 9,000 rpm; bundles only); 3.0 µM F-actin pre-incubated with 0.3 µM fascin for 20 min, titrated with Tpm2 isoforms 0-3.0 µM; 5 mM Tris, 100 mM NaCl, 2 mM MgCl2, 1 mM DTT, pH 7.5; Hill fit, apparent Kapp; fascin band in the pellets also quantified.
Experiment [3] concerns the target F-actin (rabbit skeletal muscle actin, polymerized) (rabbit) (UniProt P68135). The experiment can be described thus: co-sedimentation; high-speed centrifugation (HSC, 1 h, 40,000 rpm, 20 °C); 3.0 µM F-actin titrated with Tpm2 isoforms 0-3.0 µM, no fascin; 5 mM Tris-HCl, 100 mM NaCl, 2 mM MgCl2, 1 mM DTT, pH 7.5; Hill fit, apparent association constant Kapp.
The target of experiment [4] is GST-tagged mouse fascin-1 immobilized on glutathione-agarose (mouse) (UniProt Q61553). The experiment can be described thus: pull-down; GST-fascin-1 from E. coli lysate immobilized on glutathione-agarose and washed; incubated with 30 µM Tpm isoform overnight at 4 °C in 5 mM Tris-HCl pH 7.5, 100 mM NaCl, 2 mM MgCl2, 1 mM DTT; washed at 30 mM NaCl; eluted with PreScission Protease; SDS-PAGE.

For experiment [5], the target named is F-actin saturated with Tpm2.3 (rabbit | human) (UniProt P68135). The experiment can be described thus: co-sedimentation; high-speed centrifugation (HSC); 3.0 µM F-actin, alone or pre-incubated 15 min with 2.0 µM Tpm2 isoform, incubated with fascin 0-1.1 µM for 1 h at RT; 5 mM Tris-HCl, 100 mM NaCl, 2 mM MgCl2, 1 mM DTT, pH 7.5; Hill fit, apparent Kapp.
Experiment [6] addresses F-actin saturated with Tpm2.4 (rabbit | human) (UniProt P68135). Described as above.

As for “Tpm2.3, recombinant N-terminally acetylated human tropomyosin isoform encoded by TPM2 (natural protein)”, the Ka in experiment [1] amounted to 800000 M⁻¹; in experiment [2], 2e+06 M⁻¹; in experiment [3], 1.9e+06 M⁻¹.
For “Tpm2.1, recombinant N-terminally acetylated human tropomyosin isoform encoded by TPM2 (from UniProt P07951-2 1-284) (natural protein)”, the Ka in experiment [1] and in experiment [2] was 1.5e+06 M⁻¹ throughout.
In experiment [4], “Tpm2.4, recombinant N-terminally acetylated human tropomyosin isoform encoded by TPM2 (natural protein)” had a fold band intensity against Tpm2.1 and Tpm2.3 of 5 fold. Further, the Ka in experiment [1] turned out to be 5.2e+06 M⁻¹; in experiment [2], 5.7e+06 M⁻¹; in experiment [3], 5.1e+06 M⁻¹.
For the substance “recombinant mouse fascin-1 with GPLGS N-terminal extension (GST tag cleaved) (natural protein)”, the Ka was determined as 9.4e+06 M⁻¹ in experiment [5] and 6.7e+06 M⁻¹ in experiment [6].
